Test results: patent US20020035061A1, “COMPOSITIONS AND METHODS FOR TREATING INFECTIONS USING CATIONIC PEPTIDES ALONE OR IN COMBINATION WITH ANTIBIOTICS” (priority 1996, published 2002)

Experiments:
[1] = tested on: bacterial isolates
[2] = tested on: inherently resistant microorganisms; details: P. aeruginosa; peptide MBI 26
[3] = tested on: bacterial isolates; experiment: microbe, parasite or virus in culture
[4] = tested on: inherently resistant microorganisms; experiment: microbe, parasite or virus in culture
[5] = tested on: microorganisms with acquired resistance; experiment: microbe, parasite or virus in culture
[6] = tested on: microorganisms with acquired resistance
[7] = tested on: MSSA (Smith, ATCC # 19640); experiment: In vivo efficacy, MSSA infection; design: species or system S. aureus; details: 18 mg/kg ip, formulation D, 60 min post-infection; end of eight day observation
[8] = Acinetobacter baumannii, read-out: Ceftriaxone MIC Alone, A. baumannii ABI002
[9] = Acinetobacter baumannii, read-out: Ceftriaxone MIC Alone, A. baumannii ABI005
[10] = Acinetobacter baumannii, read-out: Ceftriaxone MIC Alone, A. baumannii ABI006
[11] = Burkholderia cepacia, read-out: Ceftriaxone MIC Alone, B. cepacia BC003
[12] = Enterobacter cloacae, read-out: Ceftriaxone MIC Alone, E. cloacae ECL014
[13] = Enterobacter cloacae, read-out: Ceftriaxone MIC Alone, E. cloacae ECL015

`CO/N=C(\C(=O)N[C@@H]1C(=O)N2C(C(=O)O)=C(CSc3nc(=O)c(=O)[nH]n3C)CS[C@H]12)c1csc(N)n1` [Ceftriaxone] was tested, and the “Ceftriaxone MIC Alone” value ([1]; B. cepacia BC003) was 16 µg/mL, the “Ceftriaxone MIC Alone” value ([1]; P. aeruginosa PA008) was 64 µg/mL and the “Ceftriaxone MIC + Peptide” value [2] was 4 µg/mL. It also gave an MIC [3, 8] of 64 µg/mL (≈ 115 µM), an MIC [3, 9] of 16 µg/mL (≈ 28.9 µM) and an MIC [3, 10] of 128 µg/mL (≈ 231 µM). The MIC [3, 11] was 32 µg/mL (≈ 57.7 µM), the MIC [3, 12] was 128 µg/mL (≈ 231 µM) and the MIC [3, 13] was 64 µg/mL (≈ 115 µM). For the same compound, the MIC ([3]; Pseudomonas aeruginosa, read-out: Ceftriaxone MIC Alone, P. aeruginosa PA008) was 128 µg/mL (≈ 231 µM), the MIC ([3]; Pseudomonas aeruginosa, read-out: Ceftriaxone MIC Alone, P. aeruginosa PA039) was 64 µg/mL (≈ 115 µM) and the MIC ([3]; Staphylococcus aureus, MRSA, read-out: Ceftriaxone MIC Alone, S. aureus SA025 MRSA) was 8 µg/mL (≈ 14.4 µM). For the same compound, the MIC ([3]; Staphylococcus epidermidis, read-out: Ceftriaxone MIC Alone, S. epidermidis SE007) was 8 µg/mL (≈ 14.4 µM), the MIC ([3]; Staphylococcus epidermidis, read-out: Ceftriaxone MIC Alone, S. epidermidis SE012) was 64 µg/mL (≈ 115 µM) and the MIC ([3]; Staphylococcus epidermidis, read-out: Ceftriaxone MIC Alone, S. epidermidis SE073) was 128 µg/mL (≈ 231 µM). The MIC ([3]; Stenotrophomonas maltophilia, read-out: Ceftriaxone MIC Alone, S. maltophilia SMA019) was over 128 µg/mL, the MIC ([3]; Stenotrophomonas maltophilia, read-out: Ceftriaxone MIC Alone, S. maltophilia SMA020) was over 128 µg/mL and the MIC ([3]; Stenotrophomonas maltophilia, read-out: Ceftriaxone MIC Alone, S. maltophilia SMA021) was over 128 µg/mL. For the same compound, the MIC ([3]; Stenotrophomonas maltophilia, read-out: Ceftriaxone MIC Alone, S. maltophilia SMA023) was 128 µg/mL (≈ 231 µM), the MIC ([4]; Pseudomonas aeruginosa, read-out: Ceftriaxone MIC + Peptide, P. aeruginosa, peptide MBI 11B7CN) was 0.125 µg/mL and the MIC ([4]; Pseudomonas aeruginosa, read-out: Ceftriaxone MIC + Peptide, P. aeruginosa, peptide MBI 26) was 8 µg/mL. It also gave an MIC ([4]; Stenotrophomonas maltophilia, read-out: Ceftriaxone MIC + Peptide, S. maltophilia, peptide MBI 26) of 1 µg/mL, an MIC ([4]; Stenotrophomonas maltophilia, read-out: Ceftriaxone MIC Alone, S. maltophilia) of over 128 µg/mL and an MIC [5, 8] of 32 µg/mL (≈ 57.7 µM). The MIC [5, 9] was 16 µg/mL (≈ 28.9 µM), the MIC [5, 10] was 128 µg/mL (≈ 231 µM) and the MIC ([5]; Acinetobacter lwoffii, read-out: Ceftriaxone MIC Alone, A. lwoffii ALW007) was 16 µg/mL (≈ 28.9 µM). The MIC [5, 11] was 16 µg/mL (≈ 28.9 µM), the MIC [5, 12] was 128 µg/mL (≈ 231 µM) and the MIC [5, 13] was 64 µg/mL (≈ 115 µM).
`CCC[C@@H]1C[C@@H](C(=O)N[C@@H]([C@H]2O[C@H](SC)[C@H](O)[C@@H](O)[C@H]2O)[C@H](C)Cl)N(C)C1` [Clindamycin] was tested, and the “MIC comb. (antibiotic agent)” value ([6]; S. epidermidis, with MBI 26) was 0.125 µg/mL (≈ 0.294 µM), the “MIC comb. (antibiotic agent)” value ([6]; S. haemolyticus, with MBI 26) was 0.125 µg/mL (≈ 0.294 µM) and the MIC ([5]; Staphylococcus epidermidis, read-out: MIC alone (antibiotic agent), S. epidermidis) was 32 µg/mL (≈ 75.3 µM). It also gave an MIC ([5]; Staphylococcus haemolyticus, read-out: MIC alone (antibiotic agent), S. haemolyticus) of 16 µg/mL (≈ 37.6 µM).
With `C[C@@H](O)[C@H]1C(=O)N2C(C(=O)O)=C(SCCN=CN)C[C@H]12` [Imipenem] the “MIC comb. (antibiotic agent)” value ([6]; S. maltophilia, with MBI 29) was 4 µg/mL (≈ 13.4 µM) and the MIC ([5]; Stenotrophomonas maltophilia, read-out: MIC alone (antibiotic agent), S. maltophilia) was over 256 µg/mL.
For ILKKWPWWPWRRK [MBI 11CN], the “% Survival” value [7] was 10%.
In the case of ILKKWVWWPWRRK [MBI 11F3CN], the “Peptide MIC + Piperacillin” value ([1]; S. aureus 19 MRSA) is reported as 1 µg/mL.
ILRWPWWPWRRK [MBI 11B7CN] was tested, and the “Peptide MIC + Ceftriaxone” value ([1]; A. baumannii ABI006) was 4 µg/mL and the “Peptide MIC + Ceftriaxone” value ([1]; B. cepacia BC003) was 4 µg/mL.
For ILRWVWWVWRRK [MBI 11F4CN], the “Peptide MIC + Piperacillin” value ([1]; P. aeruginosa 23) was 4 µg/mL.

Values after ≈ are worked out from the molar mass of the structure shown. Read-outs that look alike come from different tables or passages of the source.
